Results: patent US8389568B2, “IDO inhibitors and methods of use thereof” (Lankenau Institute for Medical Research, priority 2007, dated 2013)

Amino acid sequences for entries named in this document (tags omitted).
UniProt P14902, whole entry: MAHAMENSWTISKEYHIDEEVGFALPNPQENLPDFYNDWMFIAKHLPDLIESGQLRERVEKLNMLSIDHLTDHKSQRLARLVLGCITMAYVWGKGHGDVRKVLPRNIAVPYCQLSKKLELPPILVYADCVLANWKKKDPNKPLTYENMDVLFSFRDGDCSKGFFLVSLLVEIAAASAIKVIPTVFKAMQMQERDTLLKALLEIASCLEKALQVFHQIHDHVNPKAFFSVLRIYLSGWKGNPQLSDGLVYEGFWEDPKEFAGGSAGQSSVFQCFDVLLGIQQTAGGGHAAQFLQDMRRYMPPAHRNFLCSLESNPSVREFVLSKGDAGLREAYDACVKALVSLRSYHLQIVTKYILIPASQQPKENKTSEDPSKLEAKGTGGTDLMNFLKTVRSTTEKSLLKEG

Molecular target: human IDO (Homo sapiens, UniProt P14902)
Assay: IDO inhibition enzyme assay (N-formylkynurenine/kynurenine formation read at 490 nm)
Type: biochemical
Details: purified recombinant IDO(1); L-Trp substrate; ascorbic acid/methylene blue reductant, catalase; pH 6.5; 37° C. for 60 minutes
Experimental: Compounds of the instant invention were analyzed for inhibition of human IDO. The assay was conducted according to a literature protocol, with ascorbic acid and methylene blue serving the role of reductant (Littlejohn et al. (2000) Protein Expression and Purification, 19:22-29; Sono et al. (1989) J. Biol. Chem., 264:1616-1622). Catalase was added to prevent IDO decomposition from peroxide side products (Ohnishi et al. (1977) J. Biol. Chem., 252:4643-4647). The enzyme assay monitored for formation of N-formylkynurenine by hydrolyzing the formyl group and spectrophotometrically analyzing for the conjugated imine generated from kynurenine and 4-(dimethylamino) benzaldehyde.
Specifically, the inhibition assays were performed in a 96-well microtiter plate as previously described with a small modification (Littlejohn et al. (2000) Prot. Expr. Purif., 19:22-29). Briefly, the reaction mixture contained 50 mM potassium phosphate buffer (pH 6.5), 40 mM ascorbic acid, 400 μg/ml catalase, 20 μM methylene blue and purified recombinant IDO(1) optimized based on its activity. […] The yellow color generated from the reaction with kynurenine was measured at 490 nm using a Synergy HT microtiter plate reader (Bio-Tek, Winooski, Vt.). The data was analyzed using Graph Pad Prism 4 software (Graph Pad Software Inc., San Diego, Calif.).

IC50 [nM]	Compound
125	CC1(C)OC2=C(C(=O)c3ccccc3C2=O)[C@H](NCc2ccccc2)[C@@H]1O [Compound 16, (3S,4S)-4-(benzylamino)-3-hydroxy-2,2-dimethyl-3,4-dihydro-2H-benzo[g]chromene-5,10-dione]
286	CC1(C)OC2=C(C(=O)c3ccccc3C2=O)[C@H](NCc2ccccc2)[C@@H]1O [Compound 26, (3S,4S)-N-benzyl-3-hydroxy-2,2-dimethyl-5,10-dioxo-3,4,5,10-tetrahydro-2H-benzo[g]chromen-4-aminium chloride]
